Assay results: patent US10612051B2, “Method of producing bioproducts” (White Dog Labs, Inc., priority 2015, dated 2020)

What was measured:
[1] = Extraction with dimethyl ether (DME), distribution coefficient for comparison; type: physicochemical; conditions: extracting with dimethyl ether
Procedure: (§1) 100 g (grams) aqueous solutions of various bioproducts were prepared. Bioproduct initial concentration was 2%. Each of these bioproduct aqueous solutions was extracted in a pressure vessel by mixing with 100 g 1-butene (the olefin). The amount of formed extract and formed raffinate and the concentration (conc.) of the bioproduct in each were determined. Theses concentrations were used to calculate the bioproduct distribution coefficient (DC). Table 2 compares the found distribution coefficients to those of extracting with dimethyl ether (DME).

[2] = Extraction of aqueous bioproduct solutions with 1-butene in a pressure vessel (distribution coefficient); type: physicochemical
Procedure: as §1

Butanol
Distribution coefficient DME [1]: 2.92 | DC (bioproduct distribution coefficient) ([2]; 1-butene / aqueous phase, Table 1): 1.04 | Extract Bioproduct conc. (%) ([2]; 100 g aqueous solution, 2% initial bioproduct, mixed with 100 g 1-butene, extract phase): 1.02% | Raffinate Bioproduct conc. (%) ([2]; 100 g aqueous solution, 2% initial bioproduct, mixed with 100 g 1-butene, raffinate phase): 0.98%
